Biological target: CDK2 (Homo sapiens, UniProt P24941)
Test: Phospho-RB measurement in OVCAR3 cells (HTRF phospho-RB cellular kit)
Details: read-out: CDK2 IC50, inhibition of RB phosphorylation at S807/811 (HTRF, TR-FRET ratio 665/620), 24 h compound treatment, 0.3 to 10,000 nM
Procedure: Biological Example 1: Phospho-RB Measurement in OVCAR3 Cells
The ability of compounds of Formula (I) to inhibit CDK2 was determined in OVCAR3 cells by measuring inhibition of phosphorylation of RB protein at S780 and S807/811. Phosphorylation of RB protein at S807/811 were measured using HTRF phospho-RB cellular kits (Cat #64RBS807PEG) from Cisbio.
On Day 1, OVCAR3 cells were seeded into 96-well tissue-culture treated plates at 20,000 cells/well in 200 μL and incubated overnight at 37° C. in CO2 atmosphere. On Day 2, the cells were treated with test compounds at concentrations from 0.3 to 10,000 nM using HP D300 digital dispenser. Twenty-four hours after compound treatment, cell culture media was removed by flicking the plate and tapping the plate against clean paper towel. Immediately 30 μL 1× lysis buffer was supplemented from the kit and the plate was incubated at room temperature on shaker for 30 min. After homogenization by pipetting up and down, 8 μL cell lysate from 96-well cell culture plate was transferred to 384-well small volume white detection plate. […]
Detection plates were incubated for 4 h at room temperature and read on ClarioStar (BMG Labtech) in TR-FRET mode ([…]). […] Half maximal inhibition concentration (IC50) values are calculated with a four-parameter logistic fit using GraphPad Prism (version 8; La Jolla, CA).

CN(C)C(=O)c1cccc2c1CN(S(=O)(=O)Nc1cccc(-c3nc(C(C)(C)C)sc3-c3ccnc(NC4CC5(C4)CS(=O)(=O)C5)n3)c1F)C2
IC50: 3.01 µM

Reference: US20260274833A1 (NiKang Therapeutics, Inc., priority 2022, published 2026)
